Assay results reported in US20010028878A1, “In vitro maturation of human oocytes in one day” (priority 1998, published 2001).

Tested on: immature human oocytes
Test: In vitro maturation of immature human oocytes in IVM medium with lowered HSA content, pregnancy outcome
Format: cell-based
Conditions: content of HSA in the medium lowered from 5% to 0.5%; preliminary results
Method: All manipulations are carried out at 37° C. Follicular aspirates are filtered (Falcon 1060) to remove erythrocytes and small cellular debris. The retained cells are resuspended in equilibrated BBEM (Medi-Cult, Denmark) with bicarbonate and HEPEs buffers and then oocytes are isolated under a stereomicroscope and washed twice in BBEM (pH 7.2-7.4, mosmol/kg: 285±8, Modified EBS with lactate, MEM non essential amino acids, 2.5 mM HEPES, 0.1 mM Taurine, 200 mM Ultra-glutamine, 0.2 mM sodium pyruvate, 0.5 mM d-glucose, 0.8 mM MgSo4 anhydrous, 3.6 mM Ca-lactate, 1 mM NaH2PO4, 5.4 mM K2SO4, 110 mM NaCl, 1 ml/l SSR4xb (Medi-Cult, Denmark)). Immature oocytes are incubated in BBEM in 5% CO2 and air at 37° C. for 2 h before being transferred into IVM medium. […]
Oocytes are cultured singly in 25 μL drops of IVM medium under paraffin oil at 37° C. in 5% CO2 and humidified air. […] Images are recorded at approximately 24 h and again at either 36 or 48 h of culture, and the number of cells in MF-II are counted.
Oocytes are denuded with hyaluronidase (IVF Science, Sweden) and mechanical pipetting. […] The suitable embryos are scored on a scale from 1 (best) to 4 (worst) prior to replacement.

Human Serum Albumin [Human Serum Albumin (HSA)]
effect on pregnancy rates: no effect
